# Ab-91 heavy chain CDR variants: yeast mating affinities

Antigen: PDVDLGDISGINAS, a 14-residue peptide of the SARS-CoV-2 spike HR2 region.

Ab-91 is the parent antibody, in scFv form: VL, then three GGGGS repeats, then VH. The light chain is unchanged in all variants.
VL: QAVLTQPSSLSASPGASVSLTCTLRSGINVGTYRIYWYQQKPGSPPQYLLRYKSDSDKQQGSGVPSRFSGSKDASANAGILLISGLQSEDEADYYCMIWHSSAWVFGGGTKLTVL
VH: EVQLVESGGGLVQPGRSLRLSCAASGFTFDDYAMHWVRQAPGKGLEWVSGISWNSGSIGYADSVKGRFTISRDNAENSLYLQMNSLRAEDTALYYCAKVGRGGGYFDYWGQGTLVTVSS

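The parent was found by panning a naive human phage display library on the peptide. The library (AAYL51) carries one to three amino acid substitutions per variant, with no insertions or deletions. Affinity was read by AlphaSeq, a pooled yeast mating assay with surface-displayed partners. Binding brings cells together so that they mate, and sequencing counts the barcode pairs among the diploids. The ratio of observed to expected reads was calibrated, replicate by replicate, on BCL2-family standards whose Kd was known from biolayer interferometry. Mating was done three times.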

The parent's heavy chain CDRs are GFTFDDYAMH, GISWNSGSIGYADSVK, VGRGGGYFDY; each variant's own CDRs replace them letter for letter. Scale: log10 of Kd in nM, estimated from mating counts; low values are strong binders. Replicates are averaged; those with no signal do not enter the mean. A pair that was not seen in that replicate is written "nd"; this usually means weak binding, but a binder can also be missed.

| CDR-H1 | CDR-H2 | CDR-H3 | replicates, log10 nM | mean log10 Kd (nM) | signal with controls |
|---|---|---|---|---|---|
| GFTFDDYAMH | GISWNQGSIGYWDSVK | VGFGGGYFDY | 4.36 nd nd | 4.36 | 0/9 |
| GFTFDDYAMH | GISWNSGSIGYADSVK | PGRGPGYIDY | 1.88 2.06 1.43 | 1.79 | 3/9 (5.34) |
| GFTFDDYAMH | GWSWNSGSIGYADSVK | VGRGGGRQDY | nd nd nd | nd | 5/9 (5.30) |
| GWTFDDYAMH | GISWNSGSIGYADSVK | VARPGGYFDY | nd 4.80 nd | 4.80 | 3/9 (5.11) |
| GFTFDDYAMH | GISWNSGSINYADSVK | VGRGNGYFAY | 3.87 4.66 5.02 | 4.52 | 2/9 (4.71) |
| GFLFDDYAMH | GISWNSGSIGYADSVW | VGRGGGYFYY | 6.09 nd 5.07 | 5.58 | 3/9 (5.56) |
| GFTFDDYAMG | GSSWNTGSIGYADSVK | VGRGGGYFDY | nd nd nd | nd | 0/9 |
| GFDFDDYNMH | GISWNSGSIGYADSVK | VGRGGGYFDW | nd nd 4.25 | 4.25 | 2/9 (3.54) |
| GFTFDDYQMH | GISTNSGCIGYADSVK | VGRGGGYFDY | 4.85 nd nd | 4.85 | 7/9 (5.12) |
| GFTFDDYAMH | GISWNSHSIGYADSVK | VGRGEGYFDY | nd nd nd | nd | 1/9 (4.00) |
| GFTFDDYAMH | GISWNSGSIVYANSNK | VGRGGGYFDY | nd nd 3.99 | 3.99 | 0/9 |
| LFTFVDRAMH | GISWNSGSIGYADSVK | VGRGGGYFDY | 3.97 nd 4.03 | 4.00 | 1/9 (3.34) |
| CFTFDDYAMH | GISWNSGSPGNADSVK | VGRGGGYFDY | nd 3.67 nd | 3.67 | 1/9 (4.22) |
| GFTFDDYAMH | GISANSGHIGYADSVK | VGRGGFYFDY | nd nd nd | nd | 3/9 (4.29) |
| GFTWRDYAMP | GISWNSGSIGYADSVK | VGRGGGYFDY | nd nd nd | nd | 0/9 |
| GFTFDKYAMH | FISWNSGSIGYADSVK | VGRNGGYFDY | 3.83 nd nd | 3.83 | 0/9 |
| GFTFDDYDMH | GISWNSGSIWYADSVK | VGRGGGYFDY | nd nd 3.86 | 3.86 | 0/9 |
| GFTFDDGAMH | GISWNSGSIGYADSVK | WGRGGFYFDY | nd nd nd | nd | 0/9 |
| GFTQDDYAMH | GISWNSGSIGYADSVK | VGRGGGYPDY | 4.95 6.37 nd | 5.66 | 5/9 (4.39) |
| GFTADDYAMH | GISWNSGSIGYARSVK | VGNGGGYFDY | nd nd nd | nd | 0/9 |
| GFTFDDYAMH | GISWNSGSIDYADSVD | VGRGGYYFDY | 3.97 6.28 nd | 5.13 | 5/9 (4.80) |
| GFTFDDYAMH | GISWNSGSIGEADSVK | VGRTCGYFDY | 4.75 6.32 nd | 5.53 | 3/9 (5.05) |
| GFTFDIYAMH | GISWNSGSIGYAENVK | VGRGGGYFDY | 2.03 2.07 1.69 | 1.93 | 4/9 (4.89) |
| GFTFDDYAQH | GISHNSGSIGYADSVK | VGYGGGYFDY | nd nd nd | nd | 3/9 (3.97) |
| GGTFDDYAMH | GISWNSGSFGYADSVK | VGRGGGYFDC | 1.71 1.53 1.02 | 1.42 | 2/9 (4.78) |
| GFTVDDYASH | GISWNSGSCGYADSVK | VGRGGGYFDY | nd nd nd | nd | 2/9 (4.11) |
| GFPFDDYAMH | GISWNWPSIGYADSVK | VGRGGGYFDY | 4.40 nd nd | 4.40 | 5/9 (4.16) |
| GFTFDDYAMH | GISWNSGSIGYAESVK | VGRGGGYNMY | 6.10 nd 4.58 | 5.34 | 4/9 (4.36) |
| GFTFDDYAMH | GISWNSGSIGYADSQK | VGRGSGYFDV | nd nd nd | nd | 1/9 (4.49) |
| IFTFDDYAMH | GISCNSGSIGYADSVK | VGRGGGYFDY | 3.39 nd 3.44 | 3.41 | 2/9 (3.99) |
| GFTFDDYAMH | GKSWNSGSRGYADSVK | VGRGGGYFYY | nd 4.61 nd | 4.61 | 2/9 (4.26) |
| GFTFDDYAMH | GISMNSGSIGYMDSVK | VGRGGGYMDY | 4.36 3.34 5.28 | 4.33 | 1/9 (4.15) |
| GFTFDDYAMH | PISWNSGSVGYADAVK | VGRGGGYFDY | nd nd nd | nd | 2/9 (3.92) |
| GFTFDDYAMQ | GISWNSGSIGYADSVK | VGRYGGYFDY | nd nd nd | nd | 0/9 |
| GFTFDDYIMH | GISWNSGSIGYADSVK | PGRGQGYFDY | 3.48 nd nd | 3.48 | 0/9 |
| GFTFDDYARH | GISWNSGSIGYADSVS | VGRGGVYFDY | nd nd nd | nd | 4/9 (4.75) |
| GFTFDDYAMH | GISWNSGSIGYADALK | VGRGGGYFDY | 1.51 1.39 1.12 | 1.34 | 5/9 (4.72) |
| GSTFDDYAMH | GISWNSGSDGYADSVK | VIRGGGYFDY | nd nd nd | nd | 0/9 |
| GFTFDDYAMH | GIIWNSGSIGYADSVK | HGRGGGYFDY | 5.65 3.87 nd | 4.76 | 1/9 (4.04) |
| GFTFDDYAMH | GISWNSGSIGHADSVK | VGRGYGYFDY | 4.52 4.98 4.66 | 4.72 | 9/9 (5.20) |

The opening 2 entries, copied out:

| CDR-H1 | CDR-H2 | CDR-H3 | replicates, log10 nM | mean log10 Kd (nM) | signal with controls |
|---|---|---|---|---|---|
| GFTFDDYAMH | GISWNQGSIGYWDSVK | VGFGGGYFDY | 4.36 nd nd | 4.36 | 0/9 |
| GFTFDDYAMH | GISWNSGSIGYADSVK | PGRGPGYIDY | 1.88 2.06 1.43 | 1.79 | 3/9 (5.34) |

In this assay the parent's reference entry averaged 1.86; its copy inside this library read 0.88. As a blank, each scFv also met three strains without target: over library AAYL51, 21% of these pairings were detected, typically at 4.54 and seldom below 3.26. For each scFv, signals with the empty controls are counted beside the result, with their mean in brackets.

Data: MIT Lincoln Laboratory AlphaSeq set, Engelhart et al. 2022, doi:10.1038/s41597-022-01779-4, as distributed in FLAb.